Test [1] has as its target T1, hIDE (Homo sapiens, UniProt P14735). Briefly: In vitro hIDE inhibition of Aβ16–23-based substrate hydrolysis. To be noted: for IC50: read-out: IC50 Aβ16-23 hydrolysis, labelled Aβ16-23 substrate, value (CI 95%), mean of 3 to 10 experiments, >100 c = < 10% inhibition at 100 µM. It counts as biochemical. Here is the method:
In vitro IDE activity was measured with a quenched substrate […]. Human recombinant IDE was cloned and purified as previously described. […] All measurements were carried out as 8-point dose response curves and reported as the average of at least three independent measurements. […] Data analysis was performed using Xlfit v 5.0 and GraphPad Prism v 4.0. Nonlinear curve fitting and statistical analysis was done using built-in functions.

The chains behind the UniProt entries cited, without tags or fusion partners.
UniProt P14735, whole entry: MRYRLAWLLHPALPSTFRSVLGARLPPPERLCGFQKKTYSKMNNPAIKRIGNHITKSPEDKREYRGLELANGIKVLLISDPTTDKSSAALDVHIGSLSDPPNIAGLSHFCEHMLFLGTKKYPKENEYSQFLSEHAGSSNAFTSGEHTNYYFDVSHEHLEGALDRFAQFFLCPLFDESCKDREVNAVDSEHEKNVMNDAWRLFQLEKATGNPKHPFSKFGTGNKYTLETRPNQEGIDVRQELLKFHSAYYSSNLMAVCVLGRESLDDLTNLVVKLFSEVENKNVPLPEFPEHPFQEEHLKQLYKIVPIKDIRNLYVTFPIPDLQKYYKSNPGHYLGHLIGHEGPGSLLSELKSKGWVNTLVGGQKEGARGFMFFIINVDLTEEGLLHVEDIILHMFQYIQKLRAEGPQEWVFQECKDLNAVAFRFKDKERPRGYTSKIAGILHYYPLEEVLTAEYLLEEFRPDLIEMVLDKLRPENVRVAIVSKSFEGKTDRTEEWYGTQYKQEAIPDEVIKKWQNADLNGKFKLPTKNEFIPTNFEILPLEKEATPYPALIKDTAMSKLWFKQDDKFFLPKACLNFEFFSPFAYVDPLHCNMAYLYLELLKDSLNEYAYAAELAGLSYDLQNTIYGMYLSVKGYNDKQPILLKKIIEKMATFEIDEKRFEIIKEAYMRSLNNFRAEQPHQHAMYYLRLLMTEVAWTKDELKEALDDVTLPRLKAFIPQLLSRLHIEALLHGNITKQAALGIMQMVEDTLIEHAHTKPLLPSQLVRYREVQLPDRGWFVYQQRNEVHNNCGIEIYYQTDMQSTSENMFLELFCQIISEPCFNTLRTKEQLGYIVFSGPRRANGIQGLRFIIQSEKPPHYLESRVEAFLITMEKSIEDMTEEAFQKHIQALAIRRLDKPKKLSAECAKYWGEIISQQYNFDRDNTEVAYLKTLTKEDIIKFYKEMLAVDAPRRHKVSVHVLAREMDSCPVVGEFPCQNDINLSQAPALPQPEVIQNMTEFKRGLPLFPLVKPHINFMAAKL

Test [2] has as its target T1, hIDE. Kind of test: In vitro hIDE inhibition of insulin hydrolysis. To be noted: for IC50: read-out: IC50 insulin hydrolysis, full insulin substrate, value (CI 95%), mean of 3 to 10 experiments.

The term IC50 denotes the concentration that inhibits the measured activity by half. For the compound `O=C(C[C@@H](Cc1ccc2ccccc2c1)n1cc(CNC(=O)CCc2ccccc2)nn1)NO`, the results for the IC50 in test [1] and in test [2] were 4.4 µM and 1 µM, respectively.
The term inhibition denotes how much of the control response was suppressed. Take `O=C(C[C@@H](Cc1ccc2ccccc2c1)n1nncc1CNC(=O)CCc1ccccc1)NO`: the “inhibition at 100 µM, Aβ16-23 hydrolysis” value in test [1] (100 µM (footnote c)) is given as below 10%. For the same compound, the IC50 in test [1] and in test [2] was above 100 µM each time. The “inhibition at 100 µM, insulin hydrolysis” value in test [2] (100 µM (footnote c)) is below 10%.
Consider `O=C(NCc1cn([C@H](Cc2ccc3ccccc3c2)C(=O)NO)nn1)c1ccc(F)cc1`, for which the IC50 in test [1] stood at 67 µM; in test [2] it was 50 µM.

Source of the values: paper PMC4580987, “Catalytic site inhibition of insulin-degrading enzyme by a small molecule induces glucose intolerance in mice” (Nature Communications, 2015).
